# Legend:
# Amino acid sequences for entries named in this document (tags omitted). Residues count along the entry.
# human αvβ3 integrin on cells (human), P06756, UniProt P06756, 31-1048, chain 1 of 2: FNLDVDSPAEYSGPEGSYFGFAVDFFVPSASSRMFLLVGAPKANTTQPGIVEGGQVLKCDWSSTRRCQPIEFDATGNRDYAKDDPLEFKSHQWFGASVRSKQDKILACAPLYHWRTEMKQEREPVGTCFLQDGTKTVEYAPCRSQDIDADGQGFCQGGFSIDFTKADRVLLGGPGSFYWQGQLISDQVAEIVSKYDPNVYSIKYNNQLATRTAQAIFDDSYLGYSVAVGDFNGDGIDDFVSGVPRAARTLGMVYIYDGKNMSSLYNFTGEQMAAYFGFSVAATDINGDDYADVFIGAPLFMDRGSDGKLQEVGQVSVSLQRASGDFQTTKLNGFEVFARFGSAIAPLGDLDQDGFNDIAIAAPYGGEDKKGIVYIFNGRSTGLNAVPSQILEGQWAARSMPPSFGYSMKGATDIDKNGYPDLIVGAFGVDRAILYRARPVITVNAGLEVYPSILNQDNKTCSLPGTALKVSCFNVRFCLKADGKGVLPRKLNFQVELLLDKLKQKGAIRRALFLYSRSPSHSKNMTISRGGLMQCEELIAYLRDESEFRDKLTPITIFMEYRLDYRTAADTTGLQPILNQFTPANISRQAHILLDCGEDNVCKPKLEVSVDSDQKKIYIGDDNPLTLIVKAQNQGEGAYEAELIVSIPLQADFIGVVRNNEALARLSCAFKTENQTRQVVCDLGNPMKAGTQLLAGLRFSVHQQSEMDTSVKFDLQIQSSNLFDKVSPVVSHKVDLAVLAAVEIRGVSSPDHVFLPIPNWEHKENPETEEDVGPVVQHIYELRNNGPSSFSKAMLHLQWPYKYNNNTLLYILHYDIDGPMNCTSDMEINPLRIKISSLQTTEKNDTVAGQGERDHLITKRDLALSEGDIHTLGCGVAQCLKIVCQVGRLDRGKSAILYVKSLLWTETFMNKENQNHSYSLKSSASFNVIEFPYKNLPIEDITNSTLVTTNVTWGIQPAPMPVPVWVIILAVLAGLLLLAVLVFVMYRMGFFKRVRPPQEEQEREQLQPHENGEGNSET
# [1] = biological target: human αvβ3 integrin on cells (human), P06756; assay: flow cytometry, AP5-treated αvβ3-CHO cells; 50 µM cRGDfV against aPB
# [2] = biological target: human αvβ3 integrin on cells (human), P06756; assay: flow cytometry, AP5-treated αvβ3-CHO cells; 50 µM cRGDfV against WOW-1 Fab
binder,measurement,setting,value
RGDFV (modifications not checked) [cRGDfV],percent inhibition of aPB binding,[1],> 85%
same,percent inhibition of WOW-1 Fab binding,[2],> 85%

# Source: patent US20040005550A1, “Methods and compositions useful for targeting activated vitronectin receptor alphavbeta3” (The Scripps Research Institute, priority 1998, published 2004)
